Legend:
[1] = molecular target: T1, tau4R, the microtubule-binding region with R1-R4, labelled with Alexa Fluor 488 (human (by the printed UniProt entry)); experiment: fluorescence correlation spectroscopy (FCS); ~20 nM fluorescent protein (Alexa 488-labelled tau construct or eGFP) with unlabelled monomer αS up to 150 μM; 20°C; 50 mM Na2HPO4, 50 mM NaCl pH 7.0; single-species diffusion fit, τD normalised to the protein alone
[2] = molecular target: T2, tau_(1N4R), full-length 1N4R tau, labelled with Alexa Fluor 488 (human (by the printed UniProt entry)); experiment: as above
[3] = molecular target: T1, tau4R, the microtubule-binding region with R1-R4, labelled with Alexa Fluor 488 (human); experiment: fluorescence correlation spectroscopy (FCS); ~20 nM fluorescent protein (Alexa 488-labelled tau construct or eGFP) with unlabelled αS seeds at 20, 60 or 100 nM (monomer units); 20°C; 50 mM Na2HPO4, 50 mM NaCl pH 7.0; two-component diffusion fit, medians of type III curves
[4] = molecular target: T2, tau_(1N4R), full-length 1N4R tau, labelled with Alexa Fluor 488 (human); experiment: as above

Substance | percent increase in τD at 150 μM αS [1] [%] | percent increase in τD at 150 μM αS [2] [%] | median fB (fraction of tau with τD2) at 20 nM αS seeds [3] | median fB (fraction of tau with τD2) at 60 nM αS seeds [3] | median fB (fraction of tau with τD2) at 100 nM αS seeds [3] | median fB (fraction of tau with τD2) at 20 nM αS seeds [4] | median fB (fraction of tau with τD2) at 60 nM αS seeds [4] | median fB (fraction of tau with τD2) at 100 nM αS seeds [4] | median type III τ (D2app) at 100 nM αS seeds [4] [ms]
N-terminally acetylated full-length α-synuclein, monomer (from UniProt P37840 1-140) (natural protein) | 10 | 7 |  |  |  |  |  |  | 
full-length αS seeds (sonicated fibrils of N-terminally acetylated α-synuclein) (from UniProt P37840 1-140) (complex) |  |  | 0.12 | 0.17 | 0.17 | 0.067 | 0.26 | 0.161 | 2.5
